Molecular target: 5-hydroxytryptamine receptor 1A (Homo sapiens, UniProt P08908)
Assay: biochemical
Assay type: cell-based, HeLa

Protein sequences, listed by entry. Tags and fused reporters are not part of them.
UniProt P08908, whole entry: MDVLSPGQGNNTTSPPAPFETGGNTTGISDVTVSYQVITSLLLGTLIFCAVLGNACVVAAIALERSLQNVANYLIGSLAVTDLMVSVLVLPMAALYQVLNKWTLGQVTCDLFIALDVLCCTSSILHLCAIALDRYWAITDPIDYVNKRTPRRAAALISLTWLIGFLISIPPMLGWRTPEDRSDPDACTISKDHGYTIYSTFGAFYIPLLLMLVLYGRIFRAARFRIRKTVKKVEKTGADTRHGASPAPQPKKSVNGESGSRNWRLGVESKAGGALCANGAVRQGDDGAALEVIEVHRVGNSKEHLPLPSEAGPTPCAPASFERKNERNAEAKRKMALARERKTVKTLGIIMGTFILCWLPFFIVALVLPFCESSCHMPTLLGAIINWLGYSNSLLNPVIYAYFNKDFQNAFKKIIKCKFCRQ

Question: With `O=C1CCc2ccc(OCCCCN3CCN(c4ccc(F)c5ccccc45)CC3)nc2N1` as the compound, how does the Ki read?
Answer: 2 nM
